Data set [1] can be described thus: Reaction analysis of probe 1 with cysteine (1H NMR, UV-Vis). The note with it: deuterated acetonitrile:water, four equivalents of K2CO3.
Data set [2] is described as follows: Hydrolytic stability of the probes and the sensing product. The note with it: aqueous media, also under basic conditions.
Data set [3] is described as follows: Racemization analysis of the sensing mixture (CD and 1H NMR).

For the compound `O=C(O)[C@H](CSc1ccc([N+](=O)[O-])cc1[N+](=O)[O-])Nc1ccc([N+](=O)[O-])cc1[N+](=O)[O-]`, the “time to quantitative conversion of free cysteine to N,S-diarylation product 4 (NMR)” value in data set [1] is at most 7 min. Also, the stability to hydrolysis result in data set [2] was “hydrolytic stability”. The “H/D exchange for the proton He attached to the chiral carbon atom” value in data set [3] (1H NMR, 1.25 mM, CD3CN:D2O (4:1), K2CO3, 1 hour) is given as “no sign of H/D exchange”. In addition, in data set [3] (CD at 0, 10, 30, 60 and 120 minutes, 35 μM, K2CO3 as base), the product racemization entry is “no sign of product racemization”.

Values taken from patent US11852633B2 (priority 2017, dated 2023).
